Among the data in ChEMBL document CHEMBL5137134, “Developing the Natural Prenylflavone Artocarpin from Artocarpus hirsutus as a Potential Lead Targeting Pathogenic, Multidrug-Resistant Staphylococcus aureus, Persisters and Biofilms with No Detectable Resistance” (J Nat Prod, 2022) are FIC values, retold here.

The subject of the test is Staphylococcus aureus. As to the kind of experiment: Synergistic antibacterial activity against Staphylococcus aureus ATCC 29213 assessed as fractional inhibitory concentration incubated for 24 hrs in presence of artocarpin by checkerboard method. The format is functional.

For the molecule `CN(C)c1ccc(O)c2c1C[C@H]1C[C@H]3[C@H](N(C)C)C(O)=C(C(N)=O)C(=O)[C@@]3(O)C(O)=C1C2=O` [MINOCYCLINE], the FIC is given as 0.5.
